The first experiment relates to RPMI-8226. Briefly: Induction of cell cycle arrest at G2 phase in human RPMI-8226 cells at 0.5 uM incubated for 24 hrs by PI staining based flow cytometry (reference value: 18.3 %). The class given is functional. Background: In flow cytometry, cells or beads pass a laser one at a time.
The molecule `Cn1c([C@@H](Cc2ccccc2)NCc2ccccc2)nc2cc(C(=O)NO)ccc21` returned an Activity of 24.3%.

System in the next experiment: not listed separately
Nature of the experiment: Selectivity index, ratio of IC50 for HDAC1 (unknown origin) to IC50 for HDAC6 (unknown origin).
In the case of `Cn1c(CNc2cccc3ccccc23)nc2cc(C(=O)NO)ccc21`, the Ratio IC50 worked out at 142.

Turning to `C[C@@H](NCc1ccccc1)c1nc2cc(C(=O)NO)ccc2n1C`, the Ratio IC50 came out at 144.

Turning to `CCCCN(Cc1nc2cc(C(=O)NO)ccc2n1C)c1ccccc1`, the Ratio IC50 is 66.

Take `Cn1c(CNCc2ccccc2)nc2cc(C(=O)NO)ccc21`: the Ratio IC50 turned out to be 68.

`Cn1c([C@@H](Cc2ccccc2)NCc2ccccc2)nc2cc(C(=O)NO)ccc21`: the Ratio IC50 was determined as 243.

As for `CN(Cc1nc2cc(C(=O)NO)ccc2n1C)c1ccccc1`, the Ratio IC50 turned out to be 64.

Values taken from ChEMBL document CHEMBL5634123, “Design and synthesis of 1H-benzo[d]imidazole selective HDAC6 inhibitors with potential therapy for multiple myeloma” (Eur J Med Chem, 2023).
